Each block holds one compound with its values, some of them ahead of it.
Legend:
[1] = target: Keap1; settings: read-out: KD (ITC); ITC ref 38; cited from earlier work
[2] = target: Keap1 Kelch domain (Homo sapiens, UniProt Q14145); assay: SPR-based solution competition assay; assay type: binding
[3] = system: Keap1-Nrf2 complex; settings: cited from earlier work

The chains behind the UniProt entries cited, without tags or fusion partners. Residues count along the entry.
UniProt Q14145, 321-609 limits assumed: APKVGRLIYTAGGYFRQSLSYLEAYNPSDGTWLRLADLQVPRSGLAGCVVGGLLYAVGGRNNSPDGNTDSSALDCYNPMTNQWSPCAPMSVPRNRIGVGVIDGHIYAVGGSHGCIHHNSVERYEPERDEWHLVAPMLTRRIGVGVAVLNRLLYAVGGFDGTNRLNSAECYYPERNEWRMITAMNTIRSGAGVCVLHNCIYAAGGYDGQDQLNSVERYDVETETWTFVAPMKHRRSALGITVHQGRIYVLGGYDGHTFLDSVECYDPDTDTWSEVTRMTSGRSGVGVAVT

Compound: LQLDEETGEFLPIQ
- Kd [1]: 20 nM

- Kd [2]: > 1000 nM
Compound: CC(C)C[C@H](NC(=O)[C@H](Cc1ccccc1)NC(=O)[C@H](CCC(=O)O)NC(=O)CNC(=O)[C@@H](NC(=O)[C@H](CCC(=O)O)NC(=O)[C@H](CCC(=O)O)NC(=O)[C@@H](N)CC(=O)O)[C@@H](C)O)C(=O)O [H-8mer-OH]

Compound: LDEETGEFLP
- displacement of Nrf2 from Keap1-Nrf2 complex [3]: less effective

Reference: article PMC3218206 (Chemical biology & drug design, 2011)
